In the library only some 16% were active in any assay of this set; here they are far more common.
miR-21 reporter – miR-21 reporter, rising signal | AID 2288 | HeLa miR-21 FLuc reporter, luciferase, 48 h | 340,000 tested, under 10 active | Potency, µM (doses to about 38.3 µM), for inactives: at the top dose reporter change, positive = more light; active = well fitted rising curve with a large enough effect; inconclusive = small, poorly fitted or top-dose-only effect; inactive = no such curve, though single readings can be large or run the other way;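 note: % of control where 0% means no effect; miR-21 action dims this reporter so a rising signal means less miR-21 action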
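Luminescence from a firefly luciferase reporter carrying a miR-21 binding site downstream, stably expressed under a CMV promoter in HeLa cells that make miR-21 endogenously, reports miRNA modulation after 48 h compound exposure up to approximately 40uM final.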
TDP1 cell CPT – growth inhibition of DT40 Tdp1-/-;hTDP1 cells with camptothecin (screen for TDP1 inhibitors); chicken DT40 Tdp1-/-;hTDP1 cells + 20 nM CPT, ATP luminescence, 48 h; Potency, µM (doses to about 46.2 µM), inactives show top-dose activity change, negative = growth inhibition, actives largely listed as inhibitors; 420,000 compounds, 12% hits; AID 686979; further: potency means the concentration at half of the fitted maximal effect; on the % scale 0 is the no-effect control and ±100 the full control effect; nearly all actives have a fitted effect of over 55% in size
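Chicken DT40 Tdp1-/- cells complemented with human TDP1, 400 cells/well, exposed to compounds plus 20 nM camptothecin for at least 48 h at 37 C; viability read as ATP content by CellTiter-Glo luminescence.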
TDP1 block – blocks human tyrosyl-DNA phosphodiesterase 1 | Q9NUW8 | recombinant TDP1, AlphaScreen DNA substrate cleavage | Potency, µM (highest dose often 130 µM), inactives show at the highest dose activity change, negative = inhibition, usual class: inhibitors | 350,000 compounds, 0.28% hits | AID 485290; further: potency means the concentration at half of the fitted maximal effect; on the % scale 0 is the no-effect control and ±100 the full control effect; nearly all actives have a fitted effect of over 40% in size
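Here, a 5' biotin and 3' phosphotyrosine-FITC DNA oligonucleotide reports Tdp1 activity: intact substrate bridges AlphaScreen beads, while cleavage leaves a 3' phosphate and drops signal. All incubations at room temperature.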
uPA surface inh – cell surface uPA generation inhibition; cell surface uPA generation assay, qHTS; Potency, µM (titrated, usually from 38.3 µM), without a hit: at the top dose activity change, negative = inhibition, actives largely listed as inhibitors; 330,000 compounds, 0.31% hits; AID 540303; active means well fitted inhibition curve with a large enough effect; inconclusive means small, poorly fitted or top-dose-only effect; inactive means no such curve, though single readings can be large or run the other way; tested in mouse RAW 264.7 cells; further: potency means the concentration at half of the fitted maximal effect; on the % scale 0 is the no-effect control and ±100 the full control effect; nearly all actives have a fitted effect of over 55% in size
DT40 TDP1 no CPT – qHTS for Inhibitors of human tyrosyl-DNA phosphodiesterase 1 (TDP1): qHTS in cells in absence of CPT; DT40 Tdp1-/- hTDP1 cells, no CPT, ATP luminescence, 48 h; Potency, µM (series often up to 46.2 µM), inactives show at the top dose activity change, negative = growth inhibition, usual class: inhibitors; 420,000 compounds, 15% hits; AID 686978, 2013; further: potency means the concentration at half of the fitted maximal effect; on the % scale 0 is the no-effect control and ±100 the full control effect; nearly all actives have a fitted effect of over 55% in size
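Readout: luminescence from CellTiter-Glo after 30 min in the dark at RT. Cells: DT40 Tdp1-/- with stable hTDP1, 400/well. Exposure: compounds alone, ≥48 hr, 37 °C.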
Active calls of the source: *; ? = inconclusive; · = not tested or not shown; [ ] = dose if it differs, or a comment. Unless noted, the call rests on the fitted dose curve; in most records, active means well fitted curve in the direction sought with a large enough effect; inconclusive means small, poorly fitted or top-dose-only effect, or another doubt; inactive means no such curve, though single readings can be large; an effect the other way counts as inactive or inconclusive.

SMILES | miR-21 reporter | TDP1 cell CPT | TDP1 block | uPA surface inh | DT40 TDP1 no CPT
CCOC(=O)c1c(C)[nH]c(C(=O)OCc2ccc(C)cc2)c1C | · | -15% | · | 2% | -5%
COc1ccc(C)cc1COC(=O)c1[nH]c(C)c(C(C)=O)c1C | 8% | 21µM* | 6% | -5% | 16µM*
O=C1c2ccccc2-c2ccc(C(=O)N3CCCCC3)cc21 | -52% | 9% | 5% | 3% | 0%
CN(CC(=O)Nc1cccc(F)c1)C(=O)c1ccc(S(=O)(=O)N2CCCC2)cc1 | · | -2% | 1% | -4% | -14%
Cc1ccccc1N1CCN(C2CCCN(C(=O)CN3CCCC3=O)C2)CC1 (stereo not drawn) | 1% | -22% | 0% | 12% | -1%
CN1C(=S)SC(N(O)C(=O)Nc2ccc(Cl)c(Cl)c2)C1(C)C (stereo not drawn) | 10% | 21µM* | 8% | 8% | 16µM*
COC(=O)N[C@@H](c1cccc(C)c1)[C@@H](C)[N+](=O)[O-] | · | · | 1% | · | ·
CCn1cc(CN2CCCC(C(=O)Nc3cccc(-c4cc5ccccc5[nH]4)c3)C2)c(C)n1 (stereo not drawn) | 4% | 23µM* | 3%[56.1 µM] | -2% | ?
CCOC(=O)N1CCC(N2CCCC(C(=O)c3ccc4cc(OC)ccc4c3)C2)CC1 (stereo not drawn) | 17% | 23µM* | 5% | -6% | 15µM*
COc1cccc(C(=O)C2CCCN(C(=O)c3ccc(C#CC(C)(C)O)cc3)C2)c1 (stereo not drawn) | 10% | 18µM* | -1% | 11% | 15µM*

The final two records of the part above are carried over, then new ones follow:
SMILES | miR-21 reporter | TDP1 cell CPT | TDP1 block | uPA surface inh | DT40 TDP1 no CPT
CCOC(=O)N1CCC(N2CCCC(C(=O)c3ccc4cc(OC)ccc4c3)C2)CC1 (stereo not drawn) | 17% | 23µM* | 5% | -6% | 15µM*
COc1cccc(C(=O)C2CCCN(C(=O)c3ccc(C#CC(C)(C)O)cc3)C2)c1 (stereo not drawn) | 10% | 18µM* | -1% | 11% | 15µM*
Cc1ncc(CN2CCCC(C(=O)Nc3ccc(-c4cccc(F)c4)cc3)C2)n1C (stereo not drawn) | 1% | 23µM* | 6% | -8% | ?
O=C(NCCc1ccccc1)c1c[nH]c2ccc(S(=O)(=O)Nc3ccc(F)cc3F)cc2c1=O | -4% | 0% | -8% | · | -19%
CCc1ccccc1NC(=O)C1CCN(S(C)(=O)=O)CC1 | · | -5% | · | 11% | 0%
COc1cccc(-c2ccc(NC(=O)C3CCCN(Cc4cccc(C)n4)C3)cc2)c1 (stereo not drawn) | · | ? | · | · | 23µM*
COc1cccc(-c2ccc(NC(=O)C3CCCN(Cc4cnn(C)c4C)C3)cc2)c1 (stereo not drawn) | 0% | ? | 6% | ? | ?
COCCc1ncc(CN2CCCC(C(=O)Nc3cccc(-c4cccc(C)c4)c3)C2)cn1 (stereo not drawn) | 17% | ? | 3% | -11% | 23µM*
CC(C)c1cc(C(=O)N2CCCC(C(=O)c3ccc4ccccc4c3)C2)on1 (stereo not drawn) | -3% | ? | -3% | 1% | 26µM*
COc1cccc(CN2CCCC(C(=O)Nc3ccc(-c4cscn4)cc3)C2)c1 (stereo not drawn) | 6% | ? | 5% | 7.1µM* | ?
COc1ccc2cc(C(=O)C3CCCN(C(=O)c4ccnn4C)C3)ccc2c1 (stereo not drawn) | -1% | 26µM* | -6% | 8% | 15µM*
Cc1cc(CN2CCCC(C(=O)Nc3ccc(-c4nc5ccccc5[nH]4)cc3)C2)n[nH]1 (stereo not drawn) | -46% | 18µM* | 6%[56.1 µM] | -1% | ?
COc1cccc(-c2ccc(NC(=O)C3CCCN(Cc4ccc(CO)o4)C3)cc2)c1 (stereo not drawn) | -7% | 16µM* | 2% | 3% | 16µM*
COc1ccc(C(=O)C2CCCN(C(=O)c3ccnn3C)C2)cc1OC (stereo not drawn) | -8% | 2% | 2% | -15% | 16%
COc1ccc2cc(C(=O)C3CCCN(Cc4cccc(C)n4)C3)ccc2c1 (stereo not drawn) | 14% | 2.6µM* | 6% | -5% | 8.2µM*
Cc1ccc(NC(=O)C(C)N2CCCC2)cc1Cl (stereo not drawn) | -2% | 18% | 3% | 4% | -12%
CC1=C(C(=O)Nc2ccccc2)C(c2cc(Br)ccc2F)n2ncc(C(=O)Nc3ccccc3)c2N1 (stereo not drawn) | 29% | ? | 5% | · | ?
CC1=C(C(=O)Nc2ccc(C)cc2C)C(c2ccc(Br)cc2)n2ncc(C(=O)Nc3cccc(C)c3)c2N1 (stereo not drawn) | 8% | -4% | 4% | · | ?
CC1=C(C(=O)Nc2ccc(C)cc2C)C(c2ccccc2[N+](=O)[O-])n2ncc(C(=O)Nc3ccccc3)c2N1 (stereo not drawn) | -12% | ? | -1% | · | 26µM*
CC1=C(C(=O)Nc2ccc(C)cc2C)C(c2cc(Br)ccc2F)n2ncc(C(=O)Nc3ccc(C)cc3)c2N1 (stereo not drawn) | 0% | ? | -5% | · | 12µM*
CC(=O)c1cccc(-c2ccnc3c2CC(C(=O)NCC2CC2)O3)c1 (stereo not drawn) | · | 23µM* | · | · | ?
CC(=O)c1cccc(-c2ccnc3c2CC(C(=O)N2CCN(C)CC2)O3)c1 (stereo not drawn) | · | -1% | · | · | -6%

Complete entries, quoted from the list.
CC(=O)c1cccc(-c2ccnc3c2CC(C(=O)N2CCN(C)CC2)O3)c1 (stereo not drawn) across the screens: miR-21 reporter: ·; TDP1 cell CPT: -1%; TDP1 block: ·; uPA surface inh: ·; DT40 TDP1 no CPT: -6%
CC1=C(C(=O)Nc2ccc(C)cc2C)C(c2ccc(Br)cc2)n2ncc(C(=O)Nc3cccc(C)c3)c2N1 (stereo not drawn) across the screens: miR-21 reporter: 8%; TDP1 cell CPT: -4%; TDP1 block: 4%; uPA surface inh: ·; DT40 TDP1 no CPT: ?

More entries follow.
SMILES | miR-21 reporter | TDP1 cell CPT | TDP1 block | uPA surface inh | DT40 TDP1 no CPT
CC(=O)c1cccc(-c2ccnc3c2CC(C(=O)NCC2CCOCC2)O3)c1 (stereo not drawn) | · | 3.7µM* | · | · | 2.9µM*
O=C(NCCNS(=O)(=O)c1ccc(C(F)(F)F)cc1)N1CCOCC1 | 1% | ? | 1% | 6% | -1%
CC1CCCN(Cc2c(O)ccc3c2O/C(=C\c2ccco2)C3=O)C1 (stereo not drawn) | -15% | 15µM* | -9% | -7% | 26µM*
CCN1CCN(Cc2c(O)ccc3c2O/C(=C\c2ccccc2)C3=O)CC1 | -25% | -23% | 5% | -4% | -18%
CC(=O)Nc1ccc(Sc2ccccc2C(=O)O)c(C(=O)O)c1 | -9% | 4% | -7% | 2% | -7%
FC(F)(F)c1cnc(NNC(=S)Nc2ccc(Cl)cc2)c(Cl)c1 | ? | 10µM* | 9% | -12% | 13µM*
Cc1ccc(NC(=S)NNc2ncc(C(F)(F)F)cc2Cl)cc1 | ? | ? | 8% | -3% | ?
ON/C=N/C(=S)Nc1ncc(C(F)(F)F)cc1Cl | -35% | 15µM* | 11% | 4% | 12µM*
Fc1ccc(NC(=S)NNc2ncc(C(F)(F)F)cc2Cl)c(F)c1 | ? | 12µM* | 5% | -6% | 13µM*
CC(C)C(=O)Nc1ncc(C(F)(F)F)cc1Cl | -2% | -9% | 7% | -2% | -4%
Cc1cccc(NC(=O)N2CCCC2C(=O)NCc2cccs2)c1 (stereo not drawn) | -2% | -23% | 8% | 1% | 5%
CNC(=S)NC1(C)CCS(=O)(=O)C1 (stereo not drawn) | 3% | 0% | · | 3% | 14%
